According to paper PMC9667534, “Insertion of Nanoluc into the Extracellular Loops as a Complementary Method To Establish BRET-Based Binding Assays for GPCRs” (ACS Pharmacology & Translational Science, 2022):

Biological target: Nluc-AT1R(S186) (Homo sapiens, UniProt P30556)
Assay: BRET competition binding with fluorescent ligand 3
Conditions: kinetic BRET competition binding with 3 at Nluc-AT1R(S186)

CCCCc1nc(Cl)c(CO)n1Cc1ccc(-c2ccccc2-c2nn[nH]n2)cc1 [losartan]
time until pIC50 value stabilized: ≤ 45 min
